{"sequences": {"note": "Chains of the proteins cited; added tags and fusions are not shown.", "UniProt Q01827, whole entry": "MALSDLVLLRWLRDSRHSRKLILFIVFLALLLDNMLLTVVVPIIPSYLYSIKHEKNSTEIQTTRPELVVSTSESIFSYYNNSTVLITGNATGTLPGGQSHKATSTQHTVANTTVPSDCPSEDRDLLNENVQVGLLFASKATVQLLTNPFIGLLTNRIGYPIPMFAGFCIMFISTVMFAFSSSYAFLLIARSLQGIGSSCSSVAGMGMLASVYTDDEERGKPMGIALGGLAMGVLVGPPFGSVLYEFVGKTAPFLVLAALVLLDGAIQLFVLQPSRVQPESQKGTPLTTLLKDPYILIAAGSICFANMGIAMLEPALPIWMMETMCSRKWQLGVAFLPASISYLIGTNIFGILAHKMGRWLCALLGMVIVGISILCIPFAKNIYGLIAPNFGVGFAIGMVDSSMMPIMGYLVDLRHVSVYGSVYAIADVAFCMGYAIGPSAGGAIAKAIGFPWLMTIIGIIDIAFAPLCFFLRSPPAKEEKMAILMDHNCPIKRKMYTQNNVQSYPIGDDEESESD"}, "source": "patent US20110257220A1", "about": "“3,11 b-cis-Dihydrotetrabenazine for the Treatment of Schizophrenia and Other Psychoses” (CAMBRIDGE LABORATORIES (IRELAND) LIMITED, priority 2005, published 2011)", "origin": "cited, not measured here", "biological_target": "VMAT2 (Rattus norvegicus, UniProt Q01827)", "settings": "in vitro; Kilbourn et al.; cited from earlier work"}
{"molecule": "COc1cc2c(cc1O[11CH3])CCN1C[C@@H](CC(C)C)[C@H](O)C[C@H]21", "note": "[(+)-α-[^11C]dihydrotetrabenazine]", "values": [{"measurement": "Ki for [3H]methoxytetrabenazine relative to Ki of the (−)-α isomer", "value": "> 2000", "unit": "fold"}]}
